Target: T1, NPR-B (Homo sapiens, UniProt P20594)
T1 construct: a functional assay using endogenously NPR-B expressing GTM-3 cells; endogenous in cells; host or cells: GTM-3 (transformed human trabecular meshwork cells)
T1 sequence (P20594 23-1047): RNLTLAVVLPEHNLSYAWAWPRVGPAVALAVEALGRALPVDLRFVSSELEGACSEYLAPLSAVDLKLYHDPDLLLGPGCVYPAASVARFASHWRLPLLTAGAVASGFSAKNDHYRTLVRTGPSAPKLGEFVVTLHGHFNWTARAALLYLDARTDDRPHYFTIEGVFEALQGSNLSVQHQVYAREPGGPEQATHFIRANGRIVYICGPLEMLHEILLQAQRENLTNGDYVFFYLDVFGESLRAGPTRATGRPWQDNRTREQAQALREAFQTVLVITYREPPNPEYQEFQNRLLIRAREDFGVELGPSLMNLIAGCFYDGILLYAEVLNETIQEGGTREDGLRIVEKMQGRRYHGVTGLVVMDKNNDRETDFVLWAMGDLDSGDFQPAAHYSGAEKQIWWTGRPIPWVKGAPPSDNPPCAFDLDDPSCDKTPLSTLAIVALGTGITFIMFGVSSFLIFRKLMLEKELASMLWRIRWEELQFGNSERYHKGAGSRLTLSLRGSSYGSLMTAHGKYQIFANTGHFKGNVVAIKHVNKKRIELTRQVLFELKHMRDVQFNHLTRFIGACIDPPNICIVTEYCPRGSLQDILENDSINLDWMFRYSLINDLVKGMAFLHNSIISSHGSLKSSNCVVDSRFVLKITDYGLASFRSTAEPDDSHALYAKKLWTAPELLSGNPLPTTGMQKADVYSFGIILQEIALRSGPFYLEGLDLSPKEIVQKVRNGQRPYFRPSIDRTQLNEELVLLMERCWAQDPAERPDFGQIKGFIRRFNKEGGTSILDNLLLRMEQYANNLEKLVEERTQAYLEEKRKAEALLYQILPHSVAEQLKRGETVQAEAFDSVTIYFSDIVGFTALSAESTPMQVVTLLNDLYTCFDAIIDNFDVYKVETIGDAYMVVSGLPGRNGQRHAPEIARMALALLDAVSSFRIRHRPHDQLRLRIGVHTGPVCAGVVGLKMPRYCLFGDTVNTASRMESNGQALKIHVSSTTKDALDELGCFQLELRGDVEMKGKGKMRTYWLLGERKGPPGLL
Test: NPR-B induced production of cyclic GMP in GTM-3 cells
Type: cell-based
Conditions: group needs both EC50 and Emax criteria, checked A then B then C, read-out: Activity (group): NPR-B activation, EC50 and Emax (CNP = 100%)
Protocol: The efficacy and potency of compounds to activate NPR-B were evaluated in a functional assay using endogenously NPR-B expressing GTM-3 cells (Pang et al. 1994, Curr Eye Res 13:51-63). In this assay the dose dependent production of cyclic GMP (cGMP) is determined and Emax (maximum activation) and EC50 values are calculated.
The cell culture medium is aspirated and each well is washed with 200 μl DMEM/Ham's F12=Medium (Gibco). Then, 200 μl Medium supplemented with 1 mM IBMX (3-Isobutyl-1-methyl-xanthin, Sigma) is added to each well and incubated for 15 min. at room temperature.
Final compound concentrations are in the range from 45 μM to 20 nM.

Row | EC50 [µM] | Compound
1 | < 5 | CCCCCC(=O)N[C@H]1CSSC[C@@H](C(N)=O)NC(=O)[C@H](CO)NC(=O)[C@H]([C@@H](C)CC)NC(=O)[C@H](CCCNC(=N)N)NC(=O)[C@H](CC(=O)O)NC(=O)[C@H](CC(C)C)NC(=O)[C@H](CCCCN)NC(=O)[C@H](CC(C)C)NC(=O)CNC(=O)[C@H](Cc2ccccc2Cl)NC(=O)[C@@H](C)NC1=O [compound 76]
2 | < 1 | CCCCCC(=O)N[C@H]1CSSC[C@@H](C(N)=O)NC(=O)[C@H](CO)NC(=O)[C@H]([C@@H](C)CC)NC(=O)[C@H](CCCNC(=N)N)NC(=O)[C@H](CC(=O)O)NC(=O)[C@H](CC(C)C)NC(=O)[C@H](CCCCN)NC(=O)[C@H](CC(C)C)NC(=O)CNC(=O)[C@H](Cc2cccc(Cl)c2)NC(=O)[C@@H](C)NC1=O [compound 77]
3 | < 1 | CCCCCC(=O)N[C@H]1CSSC[C@@H](C(N)=O)NC(=O)[C@H](CO)NC(=O)[C@H]([C@@H](C)CC)NC(=O)[C@H](CCCNC(=N)N)NC(=O)[C@H](CC(=O)O)NC(=O)[C@H](CC(C)C)NC(=O)[C@H](CCCCN)NC(=O)[C@H](CC(C)C)NC(=O)CNC(=O)[C@H](Cc2ccccc2)NC(=O)[C@H]2CCN2C1=O [compound 79]
4 | < 1 | CCCCCC(=O)N[C@H]1CSSC[C@@H](C(N)=O)NC(=O)[C@H](CO)NC(=O)[C@H]([C@@H](C)CC)NC(=O)[C@H](CCCNC(=N)N)NC(=O)[C@H](CC(=O)O)NC(=O)[C@H](CC(C)C)NC(=O)[C@H](CCCCN)NC(=O)[C@H](CC(C)C)NC(=O)CNC(=O)[C@H](Cc2ccccc2)NC(=O)[C@H]2CCCCN2C1=O [compound 81]
5 | < 5 | CCCCCC(=O)N[C@H]1CSSC[C@@H](C(N)=O)NC(=O)[C@H](CO)NC(=O)[C@H]([C@@H](C)CC)NC(=O)[C@H](CCCCNC(=N)N)NC(=O)[C@H](CC(=O)O)NC(=O)[C@H](CC(C)C)NC(=O)[C@H](CCCCN)NC(=O)[C@H](CC(C)C)NC(=O)CNC(=O)[C@H](Cc2ccccc2)NC(=O)[C@@H](C)NC1=O [compound 82]
6 | < 1 | CCCCCC(=O)N[C@H]1CSSC[C@@H](C(N)=O)NC(=O)[C@H](CO)NC(=O)[C@H]([C@@H](C)CC)NC(=O)[C@H](CCCNC(=N)N)NC(=O)[C@H](CC(=O)O)NC(=O)[C@H](CCCC)NC(=O)[C@H](CCCCN)NC(=O)[C@H](CC(C)C)NC(=O)CNC(=O)[C@H](Cc2ccccc2)NC(=O)[C@@H](C)NC1=O [compound 83]
7 | < 5 | CCCCCC(=O)N[C@H]1CSSC[C@@H](C(N)=O)NC(=O)[C@H](CO)NC(=O)[C@H]([C@@H](C)CC)NC(=O)[C@H](CCCNC(=N)N)NC(=O)[C@H](CC(=O)O)NC(=O)[C@H](C(C)(C)C)NC(=O)[C@H](CCCCN)NC(=O)[C@H](CC(C)C)NC(=O)CNC(=O)[C@H](Cc2ccccc2)NC(=O)[C@@H](C)NC1=O [compound 84]
8 | < 1 | CCCCCC(=O)N[C@H]1CSSC[C@@H](C(N)=O)NC(=O)[C@H](CO)NC(=O)[C@H]([C@@H](C)CC)NC(=O)[C@H](CCCNC(=N)N)NC(=O)[C@H](CC(=O)O)NC(=O)[C@H](CC(C)C)NC(=O)[C@H](CCC2CCNCC2)NC(=O)[C@H](CC(C)C)NC(=O)CNC(=O)[C@H](Cc2ccccc2)NC(=O)[C@@H](C)NC1=O [compound 85]
9 | < 5 | CCCCCC(=O)N[C@H]1CSSC[C@@H](C(N)=O)NC(=O)[C@H](CO)NC(=O)[C@H]([C@@H](C)CC)NC(=O)[C@H](CCCNC(=N)N)NC(=O)[C@H](CC(=O)O)NC(=O)[C@H](C2CCCCC2)NC(=O)[C@H](CCCCN)NC(=O)[C@H](CC(C)C)NC(=O)CNC(=O)[C@H](Cc2ccccc2)NC(=O)[C@@H](C)NC1=O [compound 94]
10 | < 1 | CCCCCC(=O)N[C@H]1CSSC[C@@H](C(N)=O)NC(=O)[C@H](CO)NC(=O)[C@H]([C@@H](C)CC)NC(=O)[C@H](CCCNC(=N)N)NC(=O)[C@H](CC(=O)O)NC(=O)[C@H](CC(C)(C)C)NC(=O)[C@H](CCCCN)NC(=O)[C@H](CC(C)C)NC(=O)CNC(=O)[C@H](Cc2ccccc2)NC(=O)[C@@H](C)NC1=O [compound 95]
11 | < 5 | CCCCCC(=O)N[C@H]1CSSC[C@@H](C(N)=O)NC(=O)[C@H](CO)NC(=O)[C@H]([C@@H](C)CC)NC(=O)[C@H](CCCN)NC(=O)[C@H](CC(=O)O)NC(=O)[C@H](CC(C)C)NC(=O)[C@H](CCCCN)NC(=O)[C@H](CC(C)C)NC(=O)CNC(=O)[C@H](Cc2ccccc2)NC(=O)[C@@H](C)NC1=O [compound 96]
12 | < 5 | CCCCCC(=O)N[C@H]1CSSC[C@@H](C(N)=O)NC(=O)[C@H](CO)NC(=O)[C@H]([C@@H](C)CC)NC(=O)[C@H](CCCNC2=NCCN2)NC(=O)[C@H](CC(=O)O)NC(=O)[C@H](CC(C)C)NC(=O)[C@H](CCCCN)NC(=O)[C@H](CC(C)C)NC(=O)CNC(=O)[C@H](Cc2ccccc2)NC(=O)[C@@H](C)NC1=O [compound 97]
13 | < 5 | CCCCCC(=O)N[C@H]1CSSC[C@@H](C(N)=O)NC(=O)[C@H](CO)NC(=O)[C@H]([C@@H](C)CC)NC(=O)[C@H](CCCNC(=N)NC)NC(=O)[C@H](CC(=O)O)NC(=O)[C@H](CC(C)C)NC(=O)[C@H](CCCCN)NC(=O)[C@H](CC(C)C)NC(=O)CNC(=O)[C@H](Cc2ccccc2)NC(=O)[C@@H](C)NC1=O [compound 98]
14 | < 5 | CCCCCC(=O)N[C@H]1CSSC[C@@H](C(N)=O)NC(=O)[C@H](CO)NC(=O)[C@H]([C@@H](C)CC)NC(=O)[C@H](CCCNC(=N)N)NC(=O)[C@H](CC(=O)O)NC(=O)[C@H](CC(C)C)NC(=O)[C@H](CCCCN)NC(=O)[C@H](CC(C)C)NC(=O)CNC(=O)[C@H](Cc2cccc(F)c2)NC(=O)[C@@H](C)NC1=O [compound 103]
15 | < 1 | CCCCCC(=O)N[C@H]1CSSC[C@@H](C(N)=O)NC(=O)[C@H](CO)NC(=O)[C@H]([C@@H](C)CC)NC(=O)[C@H](CCCNC(=N)N)NC(=O)[C@H](CC(=O)O)NC(=O)[C@H](CC(C)C)NC(=O)[C@H](CCCCN)NC(=O)[C@H](CC(C)C)NC(=O)CNC(=O)[C@H](Cc2cccc(C)c2)NC(=O)[C@@H](C)NC1=O [compound 104]
16 | < 5 | CCCCCC(=O)N[C@H]1CSSC[C@@H](C(N)=O)NC(=O)[C@H](CO)NC(=O)[C@H]([C@@H](C)CC)NC(=O)[C@H](CCCNC(=N)N)NC(=O)[C@H](CC(=O)O)NC(=O)[C@H](CC(C)C)NC(=O)[C@H](CCCCN)NC(=O)[C@H](CC(C)C)NC(=O)CNC(=O)[C@H](Cc2cccc(C#N)c2)NC(=O)[C@@H](C)NC1=O [compound 106]
17 | < 5 | CCCCCC(=O)N[C@H]1CSSC[C@@H](C(N)=O)NC(=O)[C@H](CO)NC(=O)[C@H]([C@@H](C)CC)NC(=O)[C@H](CCCNC(=N)N)NC(=O)[C@H](CC(=O)O)NC(=O)[C@H](CC(C)C)NC(=O)[C@H](CCCCN)NC(=O)[C@H](CC(C)C)NC(=O)CNC(=O)[C@H](Cc2cccc([N+](=O)[O-])c2)NC(=O)[C@@H](C)NC1=O [compound 107]
18 | < 5 | CCCCCC(=O)N[C@H]1CSSC[C@@H](C(N)=O)NC(=O)[C@H](CO)NC(=O)[C@H]([C@@H](C)CC)NC(=O)[C@H](CCCNC(=N)N)NC(=O)[C@H](CC(=O)O)NC(=O)[C@H](CC(C)C)NC(=O)[C@H](CCCCN)NC(=O)[C@H](CC(C)C)NC(=O)CNC(=O)[C@H](Cc2cccc(OC)c2)NC(=O)[C@@H](C)NC1=O [compound 108]
19 | < 5 | CCCCCC(=O)N[C@H]1CSSC[C@@H](C(N)=O)NC(=O)[C@H](CO)NC(=O)C2(CCCC2)NC(=O)[C@H](CCCNC(=N)N)NC(=O)[C@H](CC(=O)O)NC(=O)[C@H](CC(C)C)NC(=O)[C@H](CCCCN)NC(=O)[C@H](CC(C)C)NC(=O)CNC(=O)[C@H](Cc2ccccc2)NC(=O)[C@@H](C)NC1=O [compound 110]

Row | Compound | EC50 [µM]
20 | CCCCCC(=O)N[C@H]1CSSC[C@@H](C(N)=O)NC(=O)[C@H](CO)NC(=O)[C@H]([C@@H](C)CC)NC(=O)[C@H](CCCNC(=N)N(C)C)NC(=O)[C@H](CC(=O)O)NC(=O)[C@H](CC(C)C)NC(=O)[C@H](CCCCN)NC(=O)[C@H](CC(C)C)NC(=O)CNC(=O)[C@H](Cc2ccccc2)NC(=O)[C@@H](C)NC1=O [compound 99] | < 5
21 | CCCCCC(=O)N[C@H]1CSSC[C@@H](C(N)=O)NC(=O)[C@H](CO)NC(=O)[C@H]([C@@H](C)CC)NC(=O)[C@H](CCCNC(=N)N(C)C)NC(=O)[C@H](CC(=O)O)NC(=O)[C@H](CC(C)C)NC(=O)[C@H](CCCCN)NC(=O)[C@H](CC(C)C)NC(=O)CNC(=O)[C@H](Cc2ccccc2)NC(=O)[C@@H](C)NC1=O [compound 109] | < 15

Reference: patent publication US9458198B1, “Cyclic peptide-based NPR-B agonists” (priority 2009, dated 2016)
